Tests used:
[1] = molecular target: αE-catenin homodimer (mouse, full length, His(6x) tagged) (mouse) (UniProt P26231); experiment: ultrafast force-clamp spectroscopy (optical tweezers); single α-catenin homodimer (αE-catenin 4 μg/ml, no β-catenin) bound non-specifically to a nitrocellulose-coated silica bead on the coverslip; biotinylated rhodamine-phalloidin F-actin (1 nM) suspended between two trapped neutravidin …; constant force up to ± 17 pN, one dumbbell; 20 mM MOPS pH 7.2, 50 mM KCl, 1 mM MgCl2, 0.1 mM EGTA, 20 mM DTT
[2] = molecular target: α-β-catenin heterodimer (monomeric His(6x) tagged mouse αE-catenin on GST-tagged human β-catenin) (mouse | human) (UniProt P26231); experiment: ultrafast force-clamp spectroscopy (optical tweezers); single α-β-catenin heterodimer: β-catenin 80 μg/ml on the nitrocellulose-coated silica bead, then αE-catenin 4 μg/ml for 5 min; F-actin dumbbell under constant force, one dumbbell; 20 mM MOPS pH 7.2, 50 mM KCl, 1 mM MgCl2, 0.1 mM EGTA, 20 mM DTT

Row | bond lifetime at 8.1 pN [1] | bond lifetime at 11.5 pN [1] | bond lifetime at 13.8 pN [1] | bond lifetime at −4.3 pN [1] | bond lifetime at −7.7 pN [1] | bond lifetime at −8.6 pN [1] | bond lifetime at F > 7 pN [2] | unloaded bond lifetime τ0+ (Bell slip-bond fit, positive force) [2] | unloaded bond lifetime τ0- (Bell slip-bond fit, negative force) [2] | Substance
1 | 145 ms | 9.5 ms | 61 ms | 1.25 ms | 20.5 ms | 9 ms | – | – | – | F-actin (biotinylated, rhodamine-phalloidin labelled actin filament) (from UniProt P68135 1-377) (natural protein; other documents disagree on this pair)
2 | – | – | – | – | – | – | < 1 ms | 6.1 ms | 16 ms | F-actin (biotinylated, rhodamine-phalloidin labelled actin filament) (from UniProt P68135 1-377) (natural protein)

Reference: publication PMC8894357 (2022)
